Source: patent US10465009B2, “BCMA antigen binding proteins” (Amgen Inc., priority 2012, dated 2019)
Entries after “also recorded” stand apart in the source; their conditions may differ.

Experiments:
[1] = Differential Scanning calorimetry (DSC) thermostability; assay type: physicochemical; settings: DSC, full-length antibody, Table 11
Source text: Differential Scanning calorimetry (DSC) was used to compare the thermostability of parent and engineered antibodies. DSC is a thermodynamical tool for direct assessment of the heat energy uptake, which occurs in a sample within a regulated increase or decrease in temperature. DSC is commonly employed to assess the thermal and conformational stability of a protein. The melting temperature of a protein, or of individual domains, can be obtained from the DSC profile, and if the reaction is reversible the thermodynamic parameters of the unfolding can be determined. A protein is considered more thermostable when the Tm (transition temperature) is higher. When thermostability data are compared to other bioanalytical methods, like size exclusion chromatography (SEC), it has been observed that a correlation between greater thermostability (higher Tm) and decreased aggregation. Antibodies with a higher Tm and decreased aggregation formation have the potential for improved long-term stability thus potentially making better biotherapeutics.
DSC was carried out using a MicroCal™ VP-Capillary DSC system (GE Healthcare, Piscataway, N.J.) equipped with an auto-sampler. The temperature differences between the reference and sample cells are continuously measured, and calibrated to power units. For example, the full-length antibodies shown in TABLE 10 were diluted to 0.5 mg/mL in a buffered solution. The solution reference and protein samples were measured in a 135 μL cell from 20 to 110° C. at a heating rate of 60° C./hour. The pre-scan was set at 15 minutes while the filtering period was 10 seconds. Signal from the blank buffer solution was used for baseline subtraction. The data analysis was performed using MicroCal™ Origin 7 software. Heat capacity during protein melting was calculated by normalizing over protein concentration.

IV pH jump test of ADCs = assay type: physicochemical; settings: dependence on DAR
Source text: By reducing the molar equivalents of DM1-SMCC used in the conjugation process, the desired average DAR of 3 to 4 was achieved (see above).

[2] = system: U266 luciferase-labeled myeloma cells; assay: U266-luc bone-tropic xenograft model; assay type: in vivo, NSG mice
Description: In an additional myeloma bone-tropic xenograft model similar to that above, U266 luciferase-labeled myeloma cells that express an average of 9,000 BCMA sites per cell were administered intravenously (1×10^6 cells) into NSG mice. Twenty eight days after tumor inoculation, tumor-bearing animals were randomized based on hind limb bioluminescence (tumor burden) into groups of ten animals each and dosed intravenously or intraperitoneally as denoted by the red Rx symbol. A blinded dosing study of 2A1CV5-MCC-DM1, unconjugated 2A1CV5 and PBS employing a single dose of 250 ug DM1/kg (10 mg Ab/kg) administered at day 28 was performed in this established bone-tropic tumor model. Following euthanasia, the animals were radiographed. The hind limbs were disarticulated, fixed in 10% neutral buffered formalin and decalcified. Bones were subsequently processed, embedded, sectioned and a single representative bone from each animal was stained by H&E, TRAP stain and for huCD138 expression (IHC). Bone sections were examined microscopically to determine if residual disease (huCD138+ cells) were present and to estimate the extent of the surface of the medullary cavity and bone spicules that was covered by TRAP+ osteoclasts.

[3] = Isoelectric point of whole antibody; assay type: physicochemical
[4] = target: T1, [6x Histidine-SUMO]-huBCMA (SEQ ID NO:350) and carboxy terminal clipped forms (Homo sapiens, UniProt Q02223); assay: Size exclusion chromatography and LC/MS of antibody complexes with Sumo-huBCMA and its clipped forms; assay type: binding; settings: SEC
T1 construct: GGS-G3 linker + Avi tag (lost in the clipped species) (C); made in house
T1 sequence (Q02223 5-54): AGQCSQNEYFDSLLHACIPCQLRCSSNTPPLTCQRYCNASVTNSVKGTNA
Source text: To determine which forms of 6×His-SUMO-huBCMA were bound to the anti-huBCMA antibodies, the SEC fractions were isolated and analyzed. Carboxy-terminus fragments of the extracellular domain of human BCMA were generated as clipped forms from the rhuBCMA fusion protein (6×His::Sumo::huBCMA(aa 5-51)::GGS::G3::Avi) of SEQ ID NO:350, as shown in FIG. 45.
A Superdex 200™ 10/30 cm SEC column (GE Healthcare Life Sciences) was used according to the manufacturer's recommendations and run in phosphate buffered saline (PBS). Incubations of antibody with excess levels of sumoBCMA were performed at room temperature for at least 30 minutes.
A Superdex 200™ 10/30 cm SEC column (GE Healthcare Life Sciences) was used according to the manufacturer's recommended condision and run in phosphate buffered saline (PBS). Incubations of antibody with excess levels of sumoBCMA were performed at room temperature for at least 30 minutes.
5 ug of total proteins were reduced in 50 mM Tris/4 M guanidine/9 mM DTT, pH 8.0 at 55° C. for 15 min, and analyzed in Agilent LCTOF system using a Vydac C8 column, 2.1 mm ID×150 mm, […] particle size. […] TOF MS conditions included capillary voltage of 4000 V, drying gas flow at 10 L/min, dry gas temperature at 300° C., nebulizer gas flow at 40 L/min, and fragmentor voltage of 300 V. MS data was analyzed in Agilent MassHunter™ Qualitative Analysis program.

B1: Ab-1 (antibody)
heavy: EVQLVESGGGLVKPGGSLRLSCAASGFTFGDYALSWFRQAPGKGLEWVGVSRSKAYGGTTDYAASVKGRFTISRDDSKSTAYLQMNSLKTEDTAVYYCASSGYSSGWTPFDYWGQGTLVTVSSASTKGPSVFPLAPSSKSTSGGTAALGCLVKDYFPEPVTVSWNSGALTSGVHTFPAVLQSSGLYSLSSVVTVPSSSLGTQTYICNVNHKPSNTKVDKKV[omitted - human IgG1 Fc]
light: QSVLTQPPSASGTPGQRVTISCSGSSSNIGSNTVNWYQQLPGTAPKLLIFNYHQRPSGVPDRFSGSKSGSSASLAISGLQSEDEADYYCAAWDDSLNGWVFGGGTKLTVLGQPKAAPSVTLFPPSSEELQANKATLVCLISDFYPGAVTVAWKADSSPVKAGVETTTPSKQSNNKYAASSYLSLTPEQWKSHRSYSCQVTHEGSTVEKTVAPTECS
Tm [1]: 76 °C | precipitation / stability in IV pH jump test (IV pH jump test of ADCs): stable to pH changes | antitumor effect (hind limb bioluminescence) ([2]; single dose 250 ug DM1/kg (10 mg Ab/kg) at day 28, IV or IP): modest decrease in tumor growth | residual disease in bone (histology, huCD138, TRAP) ([2]; single injection, IV or IP route): slowed tumor growth but did not cure animals of their disease | pI (Whole) [3]: 8.39 | binding to full-length and truncated forms of huBCMA [4]: bind all fragments of human BCMA; also recorded: bound various fragments of human BCMA
